{"source": "paper PMC8881069", "about": "“Thio- and selenosemicarbazones as antiprotozoal agents against Trypanosoma cruzi and Trichomonas vaginalis” (Journal of Enzyme Inhibition and Medicinal Chemistry, 2022)", "tested_on": "hydrogenosome membrane potential of T. vaginalis", "assay": "Hydrogenosomal membrane potential assay (JC-1)", "conditions": "4 h; 51 and 63 at 100 µM, MTZ 24 µM, CCCP 50 µM", "data": [{"compound": "N#CC(C#N)=NNc1cccc(Cl)c1", "note": "[CCCP, m-chlorocarbonylcyanide phenylhydrazone]", "values": [{"measurement": "alteration of hydrogenosome membrane potential (fluorescence units at 535 nm after JC-1)", "result": "showed a significant difference"}]}]}
